## Antibody variant affinities, Ab-14 light chain, assay B

Target: peptide PDVDLGDISGINAS, taken from heptad repeat 2 (HR2) of SARS-CoV-2 spike.

The variants keep the heavy chain, the linker and the frameworks of Ab-14 (scFv order VH, a 15-residue (Gly4Ser)3 linker, VL).
VH: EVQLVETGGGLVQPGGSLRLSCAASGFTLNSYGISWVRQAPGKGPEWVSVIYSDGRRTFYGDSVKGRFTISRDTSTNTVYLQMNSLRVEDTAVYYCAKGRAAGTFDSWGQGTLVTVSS
VL: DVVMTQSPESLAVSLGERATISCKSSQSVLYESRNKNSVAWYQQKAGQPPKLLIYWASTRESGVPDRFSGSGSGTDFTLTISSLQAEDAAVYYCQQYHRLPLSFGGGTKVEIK

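The parent was found by panning a naive human phage display library on the peptide. The variants were designed computationally from a first round of random CDR variants and then made and measured. Group labels follow the data file (Ctrl: baseline library sampled from a position-specific scoring matrix, with some repeated check sequences; En: ensemble of fine-tuned language models; GP: Gaussian process model; GPLM: also part of the Gaussian process libraries; HC: hill climbing; Gen: genetic algorithm; Gibbs: Gibbs sampling; a sequence that several methods proposed may carry one label only). The assay is AlphaSeq: two haploid yeast populations carry antibody and antigen on their surface. Binding brings cells together so that they mate, and sequencing counts the barcode pairs among the diploids. The ratio of observed to expected reads was calibrated, replicate by replicate, on BCL2-family standards whose Kd was known from biolayer interferometry. Each pool was mated in six replicate cultures.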

Each variant is given by its three light chain CDRs, as the data file delimits them; those of the parent are KSSQSVLYESRNKNSVA, WASTRES, QQYHRLPLS.
The read-out is the apparent dissociation constant on a log10 scale (nM): the lower, the stronger.
The mean shown is taken over the replicates in which the pair was detected.
"nd" marks a missing value. The strain was present, yet no cells mated with the target were sequenced in any replicate, which points to weak or no binding.

mean log10 Kd (nM),replicates with signal,CDR-L1,CDR-L2,CDR-L3,group
nd,0 of 6,KSSQSVIYESRWKNSVA,WASTRED,QQYRRIPLS,Ctrl
0.95,6 of 6,KSLQSHLYESRNFNSVA,HASTRED,QQYHRLPLS,GP_HC
nd,0 of 6,KSSLEFLYESRNKRSVA,WASTRES,QQYHRLPLS,Ctrl
1.59,4 of 6,MVNGIMDHLSKQHNNVA,ETETREE,QQYDRLPLS,En_Gen
0.49,6 of 6,KLSQVTNSEHKVKNSIA,EMVMREK,QQYDRLPLS,En_HC
-0.27,6 of 6,KLMQSVLYESRNKNSVA,NGSTRES,QQYHRLPLS,GP_Gen
0.73,6 of 6,KSSQDVSYESQNKNSVA,WASTRES,QQYHRLPLS,Ctrl
0.26,6 of 6,TISQLMMYESRNKNNVA,GTSTREN,QCYHRLPLS,En_HC
0.26,6 of 6,KSSQSVLYESDNKQSVA,NASTRES,QQYHRLPLS,Ctrl
1.56,6 of 6,NISINQADEYKMRNNIA,NTSWKAI,QQYFHLPLM,En_Gibbs
nd,0 of 6,KFQQMVMQGDRNKNSVA,WASTRLQ,QQYHRLPLS,GP_Gibbs
1.26,6 of 6,MISNVMNTLTRQGNNVA,DLAEREK,QQYFRLPLS,En_Gen
0.30,6 of 6,SLMDNIWVEDTYRKAIA,DINVRAK,QQYHRLPLS,En_Gibbs
0.32,6 of 6,KLSQSVLYESRNVNSVA,HASTRES,QQYHRLPLS,Ctrl
-0.28,6 of 6,KLMQSTLYESRMANNVA,SASTREE,QQYHRLPLS,GP_Gibbs
-0.03,6 of 6,KLKQSVPYESRNKNSVA,NASTRES,QQYHRLPLS,GP_Gen
0.15,6 of 6,NFPQEVMYESHFKNNVA,QTSTREQ,QQYDHLPLS,En_HC
1.08,6 of 6,TIGQTLMYGKRNKNNVA,EVSERLN,QQYDRLPLL,En_Gen
-0.09,6 of 6,KVMQSVVYEGRNKNSVA,HASTRED,QQYHRLPLS,GP_HC
1.48,6 of 6,MISQLMNMGQFAINSVA,QATIRNS,QQYDRLPLI,En_Gen
nd,0 of 6,KSSQPVLRESRNKNSVA,WASTRES,QQYHRLPLS,Ctrl
1.84,4 of 6,KSSQSHLQNSRNKNSVA,WASTRES,QQYHRLPLS,Ctrl
2.18,1 of 6,IVSQLMLWGMHAKNSIA,EAHTRLN,QQYDRLPLI,En_Gen
-0.24,6 of 6,ALSQSMDMTSRNKNSVA,DLTTRMN,QQYHRLPLS,En_HC
0.03,6 of 6,KLSQSVLYESRNKNNVA,HASTRES,QDYHRLPLS,GP_Gen
0.65,6 of 6,SFDLTKSGMENERYSIA,ETSTLMT,QDYHRLPLY,En_Gibbs
nd,0 of 6,KSSQSWLYESRNKNSVA,WASTRES,QQYHRLHLS,Ctrl
0.84,6 of 6,KLRQVTGYMEYNKNSVA,QTSTRVS,QDYHRLPLS,En_HC
0.02,6 of 6,KVSQGMWYESRMKNSVA,NASQREQ,QQYHRLPLQ,GP_Gibbs
-0.29,6 of 6,KVSQSVLYESRNKNSVA,EASTRES,QQYHRLPLQ,GP_Gen
0.33,6 of 6,KVQFQVWYSSRNKNSVA,DANTRES,QQYHRLPLS,GP_Gibbs
0.85,6 of 6,KLTMITGLEKVQGNNVA,EMETRER,QQYNRLPLA,En_Gen
-0.11,6 of 6,KSSQSDLYESRNKNSVA,GASTRES,QQYHRLTLS,GPLM_HC
1.81,1 of 6,KLLQEVTGRQQNRNSVA,HNSTRED,QQYDRLPLI,En_HC
0.94,6 of 6,TISQMTSLFSQSINNVA,EVSMREP,QQYDRLPLI,En_Gen
1.33,6 of 6,NLGQKMALITEQRNSIA,DSTVRED,QQYSRIPLI,En_Gibbs
0.47,6 of 6,QIGGLLNFESQKVNNVA,QMETRVN,QQYDRLPLS,En_Gen
0.49,6 of 6,KIGGVTNGISRNKNSVA,EQETRED,QQYNRLPLS,En_HC
1.34,6 of 6,LISGVWDIGSRNYNSVA,QTSTRES,QQYDRLPLS,En_HC
0.33,6 of 6,KLYFNVGTMSHNAQSIA,DMERRED,QQYHRLPLS,En_HC
3.29,1 of 6,KLFGGIPEQERDDYSIA,YGTLSEV,QQYDRLPLS,En_Gibbs
-0.20,6 of 6,KYSQQMLYESRNKNNVA,EASTRES,QQYHRLPLS,GP_Gibbs
1.27,4 of 6,TISQMTSWMSNKKNNVA,EVSTREA,QQYDRLPLM,En_Gen
0.06,12 of 12,KSSESVLYESRNKNSVA,DASTRES,QQYHRLPLS,Ctrl+GP_HC
1.84,1 of 6,KSSQNVLYESRNKNSVA,WLSTREV,QQYHRLPLS,Ctrl
1.89,6 of 6,KISQTFNVGTKNKNSLA,EMSTREF,QDYNRLPLS,En_HC
0.48,6 of 6,KISQSVLYESRNKNNVA,QASTRES,QQPHRLPLS,Ctrl
0.51,6 of 6,HINDMLLGSEKIAHSIA,NTGVTSR,QQYSRLPLI,En_Gibbs
1.30,5 of 6,KLSMVTGHMSMEKNNVA,EMETREK,QQYNRLPLA,En_Gen
0.85,6 of 6,KLSASWLYGKRNKNSVA,QASQRCS,QQYHRLPLS,GP_Gibbs
0.67,6 of 6,KFSQAVNTMSVSKSAVA,EMSTRPE,QQYNRLPLA,En_Gen
-0.16,6 of 6,KISQSYLYESRNKNSVA,EASTRES,QQYHRLPLS,GP_Gen

The first 7 entries again:

| CDR-L1 | CDR-L2 | CDR-L3 | group | mean log10 Kd (nM) | replicates with signal |
|---|---|---|---|---|---|
| KSSQSVIYESRWKNSVA | WASTRED | QQYRRIPLS | Ctrl | nd | 0 of 6 |
| KSLQSHLYESRNFNSVA | HASTRED | QQYHRLPLS | GP_HC | 0.95 | 6 of 6 |
| KSSLEFLYESRNKRSVA | WASTRES | QQYHRLPLS | Ctrl | nd | 0 of 6 |
| MVNGIMDHLSKQHNNVA | ETETREE | QQYDRLPLS | En_Gen | 1.59 | 4 of 6 |
| KLSQVTNSEHKVKNSIA | EMVMREK | QQYDRLPLS | En_HC | 0.49 | 6 of 6 |
| KLMQSVLYESRNKNSVA | NGSTRES | QQYHRLPLS | GP_Gen | -0.27 | 6 of 6 |
| KSSQDVSYESQNKNSVA | WASTRES | QQYHRLPLS | Ctrl | 0.73 | 6 of 6 |

Nonspecific signal, from three strains lacking the peptide, appeared in 4% of pairings of all light chain designs, centred on 2.64 (5% of these signals below 1.59); values are not corrected for it.
In the paper, a design with two or fewer of six values counts as a poor binder.
Where one sequence has several entries in the source, the replicates are pooled.
A sequence measured in both rounds can read differently, since the two assays cover different ranges.

Reference: Li et al. 2023, doi:10.1038/s41467-023-39022-2. File: FLAb, binding data.